Bioassay records as filed in PubChem BioAssay.
Sampled rows, rich in hits. Any-hit rate of the full collection: about 13%.
G9a block – G9a (human) methyltransferase inhibition; G9a H3K9 monomethylation, AlphaScreen, 2 h; Potency, µM (doses to about 102 µM), actives largely listed as inhibitors; 350,000 tested, 8.8% active; also: nearly all actives have a fitted effect of over 75% in size
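Enzyme 20 nM + cpd, 15 min RT; add b-H3K9 pep 500 nM / SAM 20 uM; 2 h RT; anti-H3K9me1 Ab 0.5 ug/mL + SA donor / anti-rabbit acceptor beads 20 ug/mL each, 10 min; AlphaScreen read.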
JMJD2E inh – blocks human JMJD2E demethylase activity; B2RXH2; JMJD2E catalytic domain, FDH-coupled NADH fluorescence (FDH is formaldehyde dehydrogenase); 230,000 tested, 1.6% active; Potency, µM (highest dose often 57.1 µM), most hits filed as inhibitors; active = well fitted inhibition curve with a large enough effect, not every such curve was filed as active; inconclusive = small, poorly fitted or top-dose-only effect, or another doubt; inactive = no such curve, though single readings can be large or run the other way; also: nearly all actives have a fitted effect of over 50% in size
Sfp PPTase inh – blocks B. subtilis Sfp PPTase activity; AID 1490; 310,000 tested, 3.5% active; Biochemical Sfp PPTase activity, qHTS; Q9F4F7; Potency, µM, usual class: inhibitors;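 also: the enzyme is Sfp with the accession as filed and its product quenches rhodamine fluorescence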
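Buffer: 50 mM Hepes-Na pH 7.6, 10 mM MgCl2, 0.01% Nonidet P-40, 0.01% BSA. Enzyme 15 nM, pre-exposed to compound 15 min; substrates then added and fluorescence change tracked over 30 min.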
Lamin A splicing – LMNA splicing modulation; HeLa LMNA splicing GFP/RFP minigene ratio, 48 h; Potency, µM (highest dose often 46.1 µM), actives largely listed as inhibitors; 200,000 tested, 0.01% active; AID 1487; active = well fitted inhibition curve with a large enough effect in the signal ratio, with a control signal flat, not every such curve was filed as active; inconclusive = small, poorly fitted or top-dose-only effect, or effect the other way, or a change in a side signal; the % refers to the signal ratio
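S3 HeLa stable clones carrying a lamin A-EGFP splicing minigene plus DsRed2 were seeded at 600 cells/well in Opti-MEM with 2% FBS, pin-dosed and incubated 48 h at 37°C. Acumen cytometry (488 nm) gave the GFP/RFP total-intensity ratio.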
miR-21 reporter – miR-21 reporter, rising signal; Potency, µM (titrated, usually from 38.3 µM); AID 2288; 340,000 tested, under 10 active; HeLa miR-21 FLuc reporter, luciferase, 48 h; active = well fitted rising curve with a large enough effect; inconclusive = small, poorly fitted or top-dose-only effect; inactive = no such curve, though single readings can be large or run the other way;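 note: miR-21 action dims this reporter so a rising signal means less miR-21 action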
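HeLa cells stably expressing CMV-driven firefly luciferase with a downstream miR-21 binding sequence, endogenously expressing miR-21, were treated with titrations (up to about 40uM final) for 48 hours at 37 degree Celsius. Luciferase luminescence was read after lysis.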
ALDH1A1 inh – inhibitors of human aldehyde dehydrogenase 1A1 | Purified ALDH1A1, NADH fluorescence, propionaldehyde substrate | Potency, µM (top dose mostly 75.3 µM), hits mostly inhibitors | 220,000 tested, 7.3% active; active = well fitted inhibition curve with a large enough effect, not every such curve was filed as active; inconclusive = small, poorly fitted or top-dose-only effect, or another doubt; inactive = no such curve, though single readings can be large or run the other way
Numbers stand for hits; – = inactive; ? = inconclusive; · = no result; [ ] = dose if it differs, or a comment. Unless noted, calls follow the shape of the dose curve; as a rule, active = well fitted curve in the direction sought with a large enough effect; inconclusive = small, poorly fitted or top-dose-only effect, or another doubt; inactive = no such curve, though single readings can be large; an effect the other way counts as inactive or inconclusive.

SMILES	G9a block	JMJD2E inh	Sfp PPTase inh	Lamin A splicing	miR-21 reporter	ALDH1A1 inh
CN(C)C(CNC(C(=O)Nc1ccc([N+](=O)[O-])cc1Br)c1ccccc1)c1ccccc1 (stereo not given)	?	?	–	–	–	?
CC(C)CNC(C(=O)Nc1ccc([N+](=O)[O-])cc1Br)c1ccccc1 (stereo not given)	6.3µM	–	?	?	–	3.5µM
Cc1ccc(NC(=O)Cn2ccn(Cc3ccc(Cl)cc3)c(=O)c2=O)cc1C	–	·	·	–	–	·
O=C(CSc1nc2ccccc2s1)NNC(=S)Nc1ccc(Br)cc1	?	–	–	–	–	8.9µM
O=C(CSc1nc2ccccc2s1)NNC(=S)Nc1ccccc1	3.5µM	–	?	–	–	8.9µM
Cc1ccc(NC(=O)Cn2c(=O)n(-c3ccc(Cl)c(Cl)c3)c(=O)c3c(C)c(C)sc32)c(C)c1	–	·	·	·	–	·
CCc1c(CN2CCN(c3ccccc3F)CC2)csc1C	–	·	·	·	–	·
O=C(Nc1cc2c3c(c1)C1CCCC1CN3CC1CCCC21)c1ccccc1 (stereo not given)	8.9µM	?	–	?	–	?
CCOC(=O)C1=NN(N=O)C2(CC(=O)N(c3cc(C)cc(C)c3)C2=O)C1 (stereo not given)	4.5µM	–	–	–	–	?
CCOC(=O)C1=NNC2(CC(=O)N(c3cc(C)cc(C)c3)C2=O)C1 (stereo not given)	–	–	–	·	–	·
Cc1nnc(SCc2cc(=O)oc3cc(O)ccc23)n1Cc1ccccc1	–	–	–	–	–	–
Cc1nnc(SCc2cc(=O)oc3ccc4ccccc4c23)n1Cc1ccccc1	35µM	?	–	–	–	?
Cc1nnc(SCc2nnc(-c3cccs3)o2)n1Cc1ccccc1	–	–	–	–	–	13µM
CSc1ccc(CNC(=O)C(C)n2nc(C)c3c(C)n(-c4ccccc4)nc3c2=O)cc1 (stereo not given)	?	·	–	·	–	·
Cc1ccc(Cn2c(=O)c3ccccc3n3c(-c4ccccc4)nnc23)cc1	–	·	·	·	–	·
CCCOc1ccc(N2C(=O)CC(SCCN)C2=O)cc1 (stereo not given)	3.5µM	–	?	–	–	0.22µM
CCOC(=O)C(N)CSC1CC(=O)N(c2ccc(C(=O)OC)cc2)C1=O (stereo not given)	8.9µM	–	–	?	–	7.1µM
CCCOc1ccc(N2C(=O)CC(SCC(N)C(=O)OCC)C2=O)cc1 (stereo not given)	71µM	·	–	·	–	·
CCOc1ccc(N2C(=O)CC(N)C2=O)cc1 (stereo not given)	7.9µM	–	–	–	–	1.1µM
CCOc1ccc(N2C(=O)CC(Cc3cc(C)cc(C)c3)C2=O)cc1 (stereo not given)	·	·	–	·	–	·
FC(F)(F)c1nc(SCc2ccc(Cl)cc2)n[nH]1	·	·	·	·	·	–[13.5 µM]
CCOc1ccc(N2C(=O)CC(SCC(=O)O)C2=O)cc1 (stereo not given)	50µM	–	–	·	–	?
O=C1CC(SCCO)C(=O)N1c1ccccc1 (stereo not given)	–	–	–	–	–	–
COC(=O)c1ccc(N2C(=O)CC(SCCN)C2=O)cc1 (stereo not given)	14µM	–	–	–	–	13µM
COc1ccc(N2C(=O)CC(SCC(=O)O)C2=O)cc1 (stereo not given)	–	–	–	–	–	?
SMILES	G9a block	JMJD2E inh	Sfp PPTase inh	Lamin A splicing	miR-21 reporter	ALDH1A1 inh
COC(=O)C/C=C/C(C)C(OC)c1ccccc1Br (stereo not given)	·	·	–	·	·	–[13.5 µM]
O=C(NCCc1ccc(O)c(O)c1)C1COc2ccccc2O1 (stereo not given)	2.2µM	·	50µM	·	–	·
O=C(NCCc1ccccc1)C1COc2ccccc2O1 (stereo not given)	–	·	–	·	–	·
COC(=O)c1nn(-c2ccc(C)cc2)c2nnc(Cc3ccccc3)c(=O)n12	18µM	–	–	?	–	?
O=S(=O)(NC(=NCCc1ccc(Cl)cc1)c1ccccc1Cl)c1cccs1	–	–	–	?	–	–
O=C1CC(=O)c2c1cccc2[N+](=O)[O-]	10µM	–	79µM	·	–	·
COc1cccc(-c2cc(C(=O)Nc3ccc(F)cc3)[nH]n2)c1	–	·	·	·	–	·
Cc1cc(N2C(=O)C(O)=C(C(=O)c3ccco3)C2c2ccc([N+](=O)[O-])cc2)no1 (stereo not given)	89µM	·	–	·	–	·
Cc1cc(N2C(=O)C(O)=C(C(=O)c3cc4ccccc4o3)C2c2cccc(Br)c2)no1 (stereo not given)	–[0.0925 µM]	·	–	·	–	·
COC(=O)c1ccc(C2C(C(=O)c3cc4ccccc4o3)=C(O)C(=O)N2c2cc(C)on2)cc1 (stereo not given)	45µM	·	–	·	–	·
Cc1cc(N2C(=O)C(O)=C(C(=O)c3cc4ccccc4o3)C2c2ccc(OC(C)C)cc2)no1 (stereo not given)	35µM	·	–	·	–	·
CCCOc1cccc(C2C(C(=O)c3cc4ccccc4o3)=C(O)C(=O)N2c2cc(C)on2)c1 (stereo not given)	–[0.501 µM]	·	–	·	–	·
Cc1ccc(C2C(C(=O)c3ccco3)=C(O)C(=O)N2c2ncccn2)cc1 (stereo not given)	–	–	–	·	–	–
CC(=O)N1c2ccc(S(=O)(=O)NCCC(=O)Nc3ccc(Br)c(C)c3)cc2CC1C (stereo not given)	–	·	·	·	–	·
COc1ccc(N2CCN(C(=O)C3CCN(S(=O)(=O)Cc4ccccc4)CC3)CC2)cc1	–	·	·	·	–	·
O=C1C(N2CCOCC2)=C(n2nnc3ccccc32)C(=O)c2ccccc21	40µM	?	–	?	?	1.3µM
O=C(Nc1ccc(C(F)(F)F)cc1)C1CCC(CNS(=O)(=O)c2cccc3nsnc23)CC1 (stereo not given)	–	·	·	·	–	·
O=C(NCc1ccccc1Cl)c1ccc[nH]1	–	–	–	–	–	–
O=C(NS(=O)(=O)c1ccccc1Cl)c1ccc[nH]1	79µM	–	–	–	–	–
Cc1cc(=O)oc2cc(OCC(=O)NCCc3nc4ccccc4[nH]3)ccc12	50µM	?	–	–	–	?
CCC(CC)c1nnc(NC(=O)COc2ccc3c(C)cc(=O)oc3c2)s1	–[0.0925 µM]	–	–	–	–	–
Cc1nnc(NC(=O)COc2ccc3c(C)cc(=O)oc3c2)s1	8.9µM	?	–	–	–	?
CCCn1c(CCC(=O)Nc2cccc(C)c2C)nc2cccnc21	–	·	·	·	–	·
COC(=O)c1ccc(SC2CCCCC2)c([N+](=O)[O-])c1	16µM	–	–	–	–	–
CCOC(=O)c1c(C)[nH]c(C)c1C(=O)COC(=O)c1cc2ccccc2cc1O	50µM	–	–	?	–	–
